Molecular target: ATM (Homo sapiens (Human), UniProt Q13315)
Assay: ATM in Cell Western Assay (pKAP1 in etoposide-treated MCF-7 cells)
Conditions: read-out: ATM (cell)

Chains of the proteins cited; added tags and fusions are not shown.
UniProt Q13315, whole entry: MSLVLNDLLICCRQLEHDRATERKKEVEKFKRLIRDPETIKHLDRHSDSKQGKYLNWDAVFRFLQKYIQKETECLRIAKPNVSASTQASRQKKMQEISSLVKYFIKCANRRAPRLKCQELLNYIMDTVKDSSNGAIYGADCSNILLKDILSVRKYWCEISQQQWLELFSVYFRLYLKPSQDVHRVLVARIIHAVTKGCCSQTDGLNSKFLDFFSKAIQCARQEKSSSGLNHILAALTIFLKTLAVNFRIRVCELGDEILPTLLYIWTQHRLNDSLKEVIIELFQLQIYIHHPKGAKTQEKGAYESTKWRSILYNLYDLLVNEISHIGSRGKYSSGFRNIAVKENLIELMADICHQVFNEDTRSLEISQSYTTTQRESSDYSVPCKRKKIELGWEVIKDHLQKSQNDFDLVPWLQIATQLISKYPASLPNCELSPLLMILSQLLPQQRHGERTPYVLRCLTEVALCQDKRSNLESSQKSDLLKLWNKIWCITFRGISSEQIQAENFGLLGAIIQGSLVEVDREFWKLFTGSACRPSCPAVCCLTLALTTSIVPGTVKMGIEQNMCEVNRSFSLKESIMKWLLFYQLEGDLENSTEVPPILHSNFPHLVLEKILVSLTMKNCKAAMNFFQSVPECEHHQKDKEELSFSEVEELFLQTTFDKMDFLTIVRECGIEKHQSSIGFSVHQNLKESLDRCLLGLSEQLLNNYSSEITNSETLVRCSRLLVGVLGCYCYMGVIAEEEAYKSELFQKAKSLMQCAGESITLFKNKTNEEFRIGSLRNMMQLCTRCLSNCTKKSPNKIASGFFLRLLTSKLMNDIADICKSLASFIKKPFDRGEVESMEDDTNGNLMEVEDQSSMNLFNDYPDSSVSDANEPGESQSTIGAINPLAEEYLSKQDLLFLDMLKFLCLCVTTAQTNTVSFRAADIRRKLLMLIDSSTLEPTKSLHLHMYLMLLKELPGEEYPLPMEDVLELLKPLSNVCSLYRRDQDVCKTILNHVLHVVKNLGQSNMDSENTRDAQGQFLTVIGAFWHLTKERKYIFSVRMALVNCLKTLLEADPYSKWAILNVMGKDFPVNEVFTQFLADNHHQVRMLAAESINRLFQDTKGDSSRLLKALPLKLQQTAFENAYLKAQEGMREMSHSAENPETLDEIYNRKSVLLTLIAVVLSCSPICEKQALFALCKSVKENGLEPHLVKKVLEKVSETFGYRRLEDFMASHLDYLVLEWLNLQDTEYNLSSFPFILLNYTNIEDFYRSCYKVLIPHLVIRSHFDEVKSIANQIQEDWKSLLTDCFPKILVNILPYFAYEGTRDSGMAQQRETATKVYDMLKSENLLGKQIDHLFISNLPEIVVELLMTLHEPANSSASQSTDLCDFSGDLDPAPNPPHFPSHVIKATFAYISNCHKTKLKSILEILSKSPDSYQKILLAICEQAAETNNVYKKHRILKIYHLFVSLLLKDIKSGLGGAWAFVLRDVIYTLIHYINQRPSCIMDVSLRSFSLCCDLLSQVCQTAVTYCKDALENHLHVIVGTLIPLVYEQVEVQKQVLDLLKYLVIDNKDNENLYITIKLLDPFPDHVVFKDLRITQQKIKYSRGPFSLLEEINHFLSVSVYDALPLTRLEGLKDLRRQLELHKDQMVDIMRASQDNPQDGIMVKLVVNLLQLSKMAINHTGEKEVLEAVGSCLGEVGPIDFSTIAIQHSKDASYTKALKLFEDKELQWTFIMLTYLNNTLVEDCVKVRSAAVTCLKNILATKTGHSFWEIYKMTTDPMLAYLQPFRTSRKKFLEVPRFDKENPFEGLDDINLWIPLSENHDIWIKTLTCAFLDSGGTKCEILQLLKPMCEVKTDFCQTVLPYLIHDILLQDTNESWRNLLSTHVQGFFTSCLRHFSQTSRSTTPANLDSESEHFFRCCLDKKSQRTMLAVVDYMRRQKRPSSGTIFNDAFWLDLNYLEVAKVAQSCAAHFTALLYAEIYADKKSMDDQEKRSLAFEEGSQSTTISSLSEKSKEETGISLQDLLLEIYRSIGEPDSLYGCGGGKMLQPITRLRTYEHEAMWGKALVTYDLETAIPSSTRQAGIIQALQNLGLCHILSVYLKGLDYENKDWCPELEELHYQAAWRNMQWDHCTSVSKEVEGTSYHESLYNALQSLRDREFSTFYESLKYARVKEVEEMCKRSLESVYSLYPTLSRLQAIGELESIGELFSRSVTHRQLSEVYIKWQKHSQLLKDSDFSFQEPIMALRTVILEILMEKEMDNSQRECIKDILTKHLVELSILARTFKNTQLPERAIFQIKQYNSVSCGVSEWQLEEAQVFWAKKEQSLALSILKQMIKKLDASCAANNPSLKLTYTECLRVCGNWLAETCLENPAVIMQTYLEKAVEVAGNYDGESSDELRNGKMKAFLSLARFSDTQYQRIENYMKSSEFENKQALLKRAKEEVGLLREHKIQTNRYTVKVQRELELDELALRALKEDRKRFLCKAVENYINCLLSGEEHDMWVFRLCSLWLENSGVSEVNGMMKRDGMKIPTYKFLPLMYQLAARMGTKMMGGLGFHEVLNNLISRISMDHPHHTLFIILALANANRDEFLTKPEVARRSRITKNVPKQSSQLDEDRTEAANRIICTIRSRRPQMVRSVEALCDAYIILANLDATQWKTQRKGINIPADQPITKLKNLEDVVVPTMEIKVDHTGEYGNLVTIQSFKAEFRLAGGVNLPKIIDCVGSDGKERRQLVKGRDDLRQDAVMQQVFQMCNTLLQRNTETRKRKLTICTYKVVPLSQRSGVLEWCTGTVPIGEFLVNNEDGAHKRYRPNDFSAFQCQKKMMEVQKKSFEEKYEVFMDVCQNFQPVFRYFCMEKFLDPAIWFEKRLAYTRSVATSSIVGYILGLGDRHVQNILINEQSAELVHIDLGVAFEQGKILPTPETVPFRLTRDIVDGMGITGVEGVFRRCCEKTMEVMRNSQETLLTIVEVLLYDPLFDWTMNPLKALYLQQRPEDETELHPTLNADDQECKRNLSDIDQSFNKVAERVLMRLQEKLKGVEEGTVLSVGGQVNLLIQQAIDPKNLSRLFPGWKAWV

IC50: > 100 nM
Structure (SMILES): CN(C)CCCOc1ncc(-c2ccc3ncc4c(c3c2)C2(CNC2)C(=O)N4C)cc1NS(C)(=O)=O
